Counter-ions that a name gives are not always drawn.
molecular target: T1, fibroblast activation protein (FAP; rhFAP, SLIN-tagged hFAP) (Homo sapiens, UniProt Q12884); type: binding
T1 sequence (Q12884 35-760): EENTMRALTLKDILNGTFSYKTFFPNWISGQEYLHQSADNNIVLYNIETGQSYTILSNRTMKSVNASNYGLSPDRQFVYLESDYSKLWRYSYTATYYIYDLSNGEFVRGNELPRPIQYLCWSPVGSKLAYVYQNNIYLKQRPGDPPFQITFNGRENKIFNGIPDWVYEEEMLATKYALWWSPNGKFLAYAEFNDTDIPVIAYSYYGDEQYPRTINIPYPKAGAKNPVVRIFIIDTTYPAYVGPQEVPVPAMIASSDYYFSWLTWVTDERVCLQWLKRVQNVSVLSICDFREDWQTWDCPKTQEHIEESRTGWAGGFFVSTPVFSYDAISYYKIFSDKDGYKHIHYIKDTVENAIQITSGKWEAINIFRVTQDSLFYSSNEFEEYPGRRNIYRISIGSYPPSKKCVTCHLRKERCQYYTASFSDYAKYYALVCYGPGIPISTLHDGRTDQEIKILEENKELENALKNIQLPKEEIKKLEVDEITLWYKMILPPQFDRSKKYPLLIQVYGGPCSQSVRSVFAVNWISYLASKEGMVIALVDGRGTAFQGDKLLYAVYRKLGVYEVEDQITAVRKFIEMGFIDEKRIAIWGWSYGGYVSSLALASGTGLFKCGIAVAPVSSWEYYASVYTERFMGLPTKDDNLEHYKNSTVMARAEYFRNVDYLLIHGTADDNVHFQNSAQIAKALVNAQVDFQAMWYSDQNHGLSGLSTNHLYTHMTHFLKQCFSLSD

Row | Ki | SMILES
1 | 0.11 µM | CO/N=C(\C(=O)N[C@@H]1C(=O)N2C(C(=O)OCOC(=O)C(C)(C)C)=C(C)CS[C@H]12)c1csc(N)n1 [Cefetamet pivoxil (hydrochloride)]
2 | 0.12 µM | CC/C=C(\C(=O)N[C@@H]1C(=O)N2C(C(=O)OCOC(=O)C(C)(C)C)=C(COC(N)=O)CS[C@H]12)c1csc(N)n1 [Cefcapene pivoxil (hydrochloride)]
3 | 0.38 µM | Cc1cc2ncc(C(=O)NCC(C)(C)NCC(=O)N3CCC[C@H]3C#N)cn2n1 [Anagliptin]
4 | 0.15 µM | CO/N=C(\C(=O)N[C@@H]1C(=O)N2C(C(=O)OCOC(=O)C(C)(C)C)=C(/C=C\c3scnc3C)CS[C@H]12)c1csc(N)n1 [Cefditoren pivoxil]
